According to ChEMBL document CHEMBL1833840, “RGD mimetics containing phthalimidine fragment as novel ligands of fibrinogen receptor” (Bioorg Med Chem Lett, 2011):

Tested on: Platelet
Experiment: Inhibition of ADP-induced platelet aggregation in human platelet rich plasma by Borns method
Type: functional
Outline: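 Human platelet-rich plasma stimulated with ADP, with aggregation followed by Born's method.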

IC50: 31 µM
Structure (SMILES): N=C(N)NCCC[C@H](N)C(=O)NCC(=O)N[C@@H](CC(=O)O)C(=O)N[C@@H](CO)C(=O)O
